The test system of the assay is ZIKV strain MR766. Kind of assay: ZIKV RNA in astrocytes with recombinant IFN-α or with inhibition of type-I IFN signaling. In kind it is cell-based, Zika virus. The settings on record: human astrocytes; recombinant IFN-α2 at 1000 units/mL before ZIKV MOI 0.5; RNA at 24 h after infection. Here is the method:
Total mRNA was isolated with TRIzol Reagent (Thermo Fisher Scientific) and RNeasy Mini Kit (QIAGEN Inc., Valencia, CA, USA) following the manufacturer’s recommendations. Two real-time RT-PCR methods were used for the current studies. First, SYBR Green-based RT-PCR assay was used to determine intracellular ZIKV RNA in Vero cells. For this assay, reverse transcription was performed using Verso cDNA synthesis Kit (Thermo Fisher Scientific) and 1 µg of total RNA in a 15-µL final volume. The RT-PCR analyses were performed using 7.5-µL SYBR Green PCR Master Mix (Thermo Fisher Scientific) with 0.5-µL cDNA, 1.5-µL H2O, 5.5-µL oligonucleotide primer pairs at 10 µM. […] GG-3. PCR program: 1, 50°C for 2 min; 2, 95°C for 2 min; 3, 95°C for 15 s; 4, specific annealing temperature for 15 s; 5, 72°C for 1 min. Steps 2–4 were repeated 40 times. All samples were amplified in triplicate for analysis. Relative ZIKV RNA levels were determined and standardized with a GAPDH internal control using comparative ΔΔCT method ([35]). […] Relative ZIKV mRNA levels were determined and standardized with a GAPDH or 18-s rRNA endogenous control using comparative ΔΔCT method ([35]). […] Quantitative genomic RNA from ZIKV (NR-1838DQ, ATCC) was used as a standard to calculate viral copies.

Results on one substance are retold here after PMC5906549, “Cathelicidin-Derived Antimicrobial Peptides Inhibit Zika Virus Through Direct Inactivation and Interferon Pathway” (Frontiers in Immunology, 2018).

Regarding “IFN-α: recombinant human IFN-α, tested for ZIKV inhibition at 1000 units/mL”, the “ZIKV infection (ZIKV RNA) after IFN-α treatment” value is on record as “significantly inhibited ZIKV infection”.
